Data published in patent US9125930B2, “EGFR aptamer inhibitor for use in therapy and diagnosis” (CONSIGLIO NAZIONALE DELLE RICERCHE, priority 2010, dated 2015).

Test system: A549 cells
Assay: Cell viability assay, A549 cells
Assay type: cell-based, human
Conditions: dose-dependent experiments, 0.05-1 μM
Protocol: Cell viability was assessed with CellTiter 96® AQueous One Solution Cell Proliferation Assay (Promega, Madison, Wis.) according to according to the supplier's instructions. […] The optical density (OD) was measured using a Multilabel Counter (Bio-Rad) at a wavelength of 490 nm and cell viability was calculated by the following formula: Cell viability (%)=(OD treated cells/OD control cells)×100%. FACS Analysis

cetuximab [reference compound]
sensitivity of A549 cell viability: resistant
